In ChEMBL document CHEMBL2086370 (J Med Chem, 2012) one finds Efficacy data, which are given here for one compound.

Chains of the proteins cited; added tags and fusions are not shown.
UniProt P41146, whole entry: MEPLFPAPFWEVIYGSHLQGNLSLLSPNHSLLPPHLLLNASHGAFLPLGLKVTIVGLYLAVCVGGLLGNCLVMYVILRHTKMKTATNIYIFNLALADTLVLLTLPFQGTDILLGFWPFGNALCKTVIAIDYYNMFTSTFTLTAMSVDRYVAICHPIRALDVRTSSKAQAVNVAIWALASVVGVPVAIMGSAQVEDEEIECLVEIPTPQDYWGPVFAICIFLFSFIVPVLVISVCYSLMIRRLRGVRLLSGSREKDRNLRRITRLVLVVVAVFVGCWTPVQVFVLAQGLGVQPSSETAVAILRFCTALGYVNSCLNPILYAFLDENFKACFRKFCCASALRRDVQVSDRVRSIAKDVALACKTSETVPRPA

This assay addresses Nociceptin receptor (Homo sapiens) (UniProt P41146). The assay can be described thus: Agonist activity at human cloned NOP receptor expressed in CHO cell membranes after 30 mins by [35S]GTPgammaS binding assay relative to nociceptin. A general note: GTPγS is a poorly hydrolysed GTP analogue; its binding reports G protein activation.

In turn, `CNC(=O)Cn1c(=O)n(C2CCN([C@@H]3Cc4cccc5cccc3c45)CC2)c2ccccc21` came in with an Efficacy of 129%.
